Literature values, collected in publication PMC8131289, “Direct Comparison of the Prediction of the Unbound Brain-to-Plasma Partitioning Utilizing Machine Learning Approach and Mechanistic Neuropharmacokinetic Model” (The AAPS Journal, 2021).

The chains behind the UniProt entries cited, without tags or fusion partners. Where a name states a change or a piece, a line headed by the entry shows the natural chain unless it says otherwise.
UniProt P08183, whole entry: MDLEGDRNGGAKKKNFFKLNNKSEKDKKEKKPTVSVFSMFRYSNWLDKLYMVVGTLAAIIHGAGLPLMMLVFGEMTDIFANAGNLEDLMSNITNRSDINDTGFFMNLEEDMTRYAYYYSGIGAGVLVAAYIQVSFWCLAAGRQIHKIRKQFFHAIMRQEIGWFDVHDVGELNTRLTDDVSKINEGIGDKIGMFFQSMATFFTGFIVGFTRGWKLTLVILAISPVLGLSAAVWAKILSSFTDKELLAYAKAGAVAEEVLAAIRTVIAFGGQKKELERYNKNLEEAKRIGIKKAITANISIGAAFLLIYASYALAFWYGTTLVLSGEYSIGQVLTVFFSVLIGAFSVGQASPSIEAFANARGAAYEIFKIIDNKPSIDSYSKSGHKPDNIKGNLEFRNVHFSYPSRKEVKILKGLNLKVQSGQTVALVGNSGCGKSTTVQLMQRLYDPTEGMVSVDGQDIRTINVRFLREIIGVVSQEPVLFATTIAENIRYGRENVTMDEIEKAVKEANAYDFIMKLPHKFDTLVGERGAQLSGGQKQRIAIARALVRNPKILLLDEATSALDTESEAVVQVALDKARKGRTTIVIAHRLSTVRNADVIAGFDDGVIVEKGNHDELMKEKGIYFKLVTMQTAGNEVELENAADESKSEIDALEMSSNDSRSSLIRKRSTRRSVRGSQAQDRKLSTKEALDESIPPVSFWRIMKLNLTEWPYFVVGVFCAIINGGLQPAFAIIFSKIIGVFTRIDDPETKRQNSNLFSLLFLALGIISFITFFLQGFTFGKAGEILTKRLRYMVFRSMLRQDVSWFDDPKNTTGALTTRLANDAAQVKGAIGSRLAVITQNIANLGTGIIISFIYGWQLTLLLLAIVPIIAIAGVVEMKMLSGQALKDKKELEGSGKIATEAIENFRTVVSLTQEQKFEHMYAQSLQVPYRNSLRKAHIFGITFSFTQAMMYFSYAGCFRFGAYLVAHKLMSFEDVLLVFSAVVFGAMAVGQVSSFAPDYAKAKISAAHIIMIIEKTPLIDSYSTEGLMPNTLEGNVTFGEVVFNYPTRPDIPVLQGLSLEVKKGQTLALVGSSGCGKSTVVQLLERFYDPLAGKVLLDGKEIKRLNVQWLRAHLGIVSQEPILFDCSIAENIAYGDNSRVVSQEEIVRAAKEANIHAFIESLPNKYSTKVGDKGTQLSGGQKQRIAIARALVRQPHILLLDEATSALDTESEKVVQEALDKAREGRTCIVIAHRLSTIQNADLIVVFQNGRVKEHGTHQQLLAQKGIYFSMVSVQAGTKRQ
UniProt Q9UNQ0: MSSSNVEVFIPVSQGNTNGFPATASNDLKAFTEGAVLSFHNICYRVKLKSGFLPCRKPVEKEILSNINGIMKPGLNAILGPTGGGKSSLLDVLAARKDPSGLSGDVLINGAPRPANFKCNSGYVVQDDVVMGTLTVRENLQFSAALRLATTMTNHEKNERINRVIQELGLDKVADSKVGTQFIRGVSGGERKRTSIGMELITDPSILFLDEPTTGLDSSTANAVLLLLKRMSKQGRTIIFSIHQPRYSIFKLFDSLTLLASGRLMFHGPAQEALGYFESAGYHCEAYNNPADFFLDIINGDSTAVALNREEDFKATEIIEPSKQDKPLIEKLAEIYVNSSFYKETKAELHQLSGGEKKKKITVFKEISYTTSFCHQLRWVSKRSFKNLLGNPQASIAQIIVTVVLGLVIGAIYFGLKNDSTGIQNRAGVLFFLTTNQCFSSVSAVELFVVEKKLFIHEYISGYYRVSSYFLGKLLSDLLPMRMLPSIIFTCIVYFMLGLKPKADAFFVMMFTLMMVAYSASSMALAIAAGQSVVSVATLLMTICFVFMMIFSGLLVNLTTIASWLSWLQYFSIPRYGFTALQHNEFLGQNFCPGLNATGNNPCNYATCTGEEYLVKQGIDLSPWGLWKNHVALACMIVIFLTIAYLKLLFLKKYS

What was measured:
MDR1 = MDR1 (Homo sapiens, UniProt P08183); details: MDCK-MDR1 cells, external dataset; ref (17)
BCRP = BCRP (Homo sapiens, UniProt Q9UNQ0); details: MDCK-BCRP cells, external dataset; ref (17)

| Efflux ratio MDR1 (MDR1) | Efflux ratio BCRP (BCRP) | SMILES |
| --- | --- | --- |
| 0.93 | 0.95 | CC(C)NCC(O)COc1cccc2ccccc12 (stereo not shown) [Propranolol] |
| 0.19 | – | O=c1c(-c2ccc(O)cc2)coc2cc(O)cc(O)c12 [Genistein] |
| – | 0.93 | O=C1NC(=O)C(c2ccccc2)(c2ccccc2)N1 [Phenytoin] |
